Where a name gives a salt, the structure may show the parent alone.

Protein sequences, listed by entry. Tags and fused reporters are not part of them. Residues count along the entry.
UniProt P30926, 22-498: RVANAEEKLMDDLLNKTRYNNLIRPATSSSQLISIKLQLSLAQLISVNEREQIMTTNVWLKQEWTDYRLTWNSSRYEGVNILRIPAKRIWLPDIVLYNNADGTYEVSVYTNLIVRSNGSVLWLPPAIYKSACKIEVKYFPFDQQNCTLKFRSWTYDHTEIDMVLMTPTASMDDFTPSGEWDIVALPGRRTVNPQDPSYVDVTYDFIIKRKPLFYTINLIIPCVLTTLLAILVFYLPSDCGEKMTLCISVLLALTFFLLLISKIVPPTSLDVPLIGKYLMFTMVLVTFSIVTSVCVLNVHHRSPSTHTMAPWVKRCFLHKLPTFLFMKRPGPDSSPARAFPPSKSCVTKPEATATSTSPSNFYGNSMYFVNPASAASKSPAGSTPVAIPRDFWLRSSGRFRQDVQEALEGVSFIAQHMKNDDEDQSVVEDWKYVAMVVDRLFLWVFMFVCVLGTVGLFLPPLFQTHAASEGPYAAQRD
UniProt P32297, 32-505: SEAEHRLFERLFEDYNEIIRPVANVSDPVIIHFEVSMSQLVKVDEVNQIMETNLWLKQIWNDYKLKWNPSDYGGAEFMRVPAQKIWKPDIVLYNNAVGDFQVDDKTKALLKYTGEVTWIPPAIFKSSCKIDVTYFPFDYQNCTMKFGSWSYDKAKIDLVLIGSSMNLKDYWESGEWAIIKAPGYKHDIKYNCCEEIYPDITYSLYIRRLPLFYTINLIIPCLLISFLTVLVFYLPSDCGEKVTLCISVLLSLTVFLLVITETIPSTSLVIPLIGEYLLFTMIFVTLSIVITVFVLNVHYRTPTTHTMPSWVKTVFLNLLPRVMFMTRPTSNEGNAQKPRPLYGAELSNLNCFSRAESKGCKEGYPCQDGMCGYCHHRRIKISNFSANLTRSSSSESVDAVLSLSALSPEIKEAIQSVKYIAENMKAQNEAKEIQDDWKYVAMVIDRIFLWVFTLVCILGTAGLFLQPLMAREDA

The test deals with T1, human α3β4 nAChRs (Homo sapiens, UniProt P30926+P32297).
T1 construct: expressed in transfected cells
Briefly: 86Rb+ efflux assay, inhibition of nicotine-stimulated efflux, α3β4 nAChRs. The format is cell-based. Particulars: 86Rb+ efflux stimulated by 100 μM nicotine; HEK cells YXα3β4H1; mean ± standard error. As to the method:
Stable cell lines and ^86Rb^+ efflux Assay. The cell lines expressing human α4β2 (YXα4β2H1) and α3β4 (YXα3β4H1) nAChRs were established recently (Xiao el al., 2012). These cell lines were maintained in minimum essential medium (MEM) supplemented with 10% fetal bovine serum, 100 units/mL penicillin G, […] streptomycin and selective antibiotics at 37° C. with 5% CO2 in a humidified incubator. Tissue culture medium and antibiotics were obtained from Invitrogen Corporation (Carlsbad, Calif.), unless otherwise stated. Fetal bovine serum was obtained from Gemini Bio-Products (Woodland, Calif.).
Functional properties of compounds at nAChRs expressed in the transfected cells were measured using ^86Rb^+ efflux assays as described previously (Xiao et al., 1998, 2001). In brief, cells were plated into 24-well plates coated with poly-D-lysine. The plated cells were grown at 37° C. for 18 to 24 hour to reach 85-95% confluence. […] Radioactivity of assay samples and lysates was measured by liquid scintillation counting. Total loading (cpm) was calculated as the sum of the assay sample and the lysate of each well, and the amount of ^86Rb^+ efflux was expressed as a percentage of ^86Rb^+ loaded. […] IC50 values were determined by nonlinear least-squares regression analyses (GraphPad. San Diego, Calif.).

As usually defined, the IC50 is the midpoint of a concentration-inhibition curve. Low values mean inhibition by little substance, high ones a need for much substance. `CNC1(C)C2CCC(C2)C1(C)C` (stereo not shown) [Mecamylamine, Mecamylamine HCl, reference compound] gave an IC50 of 3.7 ± 1.2 µM.

These data come from patent publication US11278522B2, “Use of methadone metabolites for treatment of anxiety and depression” (Georgetown University, priority 2015, dated 2022).
